Results reported in PMC3954981 (Bioorganic & medicinal chemistry, 2014).

By UniProt entry, the sequences of proteins in these tests, tags left out.
UniProt Q9UM07, whole entry: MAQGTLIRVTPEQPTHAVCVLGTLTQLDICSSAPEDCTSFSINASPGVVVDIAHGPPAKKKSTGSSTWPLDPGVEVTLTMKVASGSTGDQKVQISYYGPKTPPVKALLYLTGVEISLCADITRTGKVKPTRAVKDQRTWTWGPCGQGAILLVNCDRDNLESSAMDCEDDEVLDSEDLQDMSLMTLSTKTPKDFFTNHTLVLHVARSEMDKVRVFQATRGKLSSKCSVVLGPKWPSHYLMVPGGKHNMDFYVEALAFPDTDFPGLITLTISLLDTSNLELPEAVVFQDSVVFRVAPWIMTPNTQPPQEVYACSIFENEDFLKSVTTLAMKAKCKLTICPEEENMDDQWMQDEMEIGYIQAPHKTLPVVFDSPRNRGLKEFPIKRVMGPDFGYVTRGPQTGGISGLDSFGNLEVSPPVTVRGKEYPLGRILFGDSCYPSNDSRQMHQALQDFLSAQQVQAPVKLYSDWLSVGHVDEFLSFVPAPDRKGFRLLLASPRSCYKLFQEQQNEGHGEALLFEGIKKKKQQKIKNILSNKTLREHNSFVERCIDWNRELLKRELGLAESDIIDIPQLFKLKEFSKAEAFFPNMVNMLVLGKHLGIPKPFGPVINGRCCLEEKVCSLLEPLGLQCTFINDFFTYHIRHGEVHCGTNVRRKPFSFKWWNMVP
UniProt Q9UM07, whole entry C645A: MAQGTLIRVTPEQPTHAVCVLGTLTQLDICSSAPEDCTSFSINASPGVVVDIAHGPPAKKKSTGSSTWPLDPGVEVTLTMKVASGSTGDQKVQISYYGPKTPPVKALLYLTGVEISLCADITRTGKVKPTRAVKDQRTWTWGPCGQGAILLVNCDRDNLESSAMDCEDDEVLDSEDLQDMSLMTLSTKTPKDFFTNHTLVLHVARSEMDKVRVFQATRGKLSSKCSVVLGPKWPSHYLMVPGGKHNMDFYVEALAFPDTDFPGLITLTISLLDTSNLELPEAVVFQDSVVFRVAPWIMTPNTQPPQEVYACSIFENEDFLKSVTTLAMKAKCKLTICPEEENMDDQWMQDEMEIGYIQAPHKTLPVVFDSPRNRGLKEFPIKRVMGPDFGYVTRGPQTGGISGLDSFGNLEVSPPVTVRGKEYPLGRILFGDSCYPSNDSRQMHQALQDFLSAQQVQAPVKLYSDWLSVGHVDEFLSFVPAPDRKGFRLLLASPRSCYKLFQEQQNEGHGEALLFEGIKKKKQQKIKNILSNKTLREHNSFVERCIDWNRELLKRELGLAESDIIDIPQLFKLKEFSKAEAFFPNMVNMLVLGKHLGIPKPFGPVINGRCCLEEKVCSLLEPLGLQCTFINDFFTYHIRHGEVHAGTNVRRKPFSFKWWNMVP
UniProt Q9Y2J8, whole entry: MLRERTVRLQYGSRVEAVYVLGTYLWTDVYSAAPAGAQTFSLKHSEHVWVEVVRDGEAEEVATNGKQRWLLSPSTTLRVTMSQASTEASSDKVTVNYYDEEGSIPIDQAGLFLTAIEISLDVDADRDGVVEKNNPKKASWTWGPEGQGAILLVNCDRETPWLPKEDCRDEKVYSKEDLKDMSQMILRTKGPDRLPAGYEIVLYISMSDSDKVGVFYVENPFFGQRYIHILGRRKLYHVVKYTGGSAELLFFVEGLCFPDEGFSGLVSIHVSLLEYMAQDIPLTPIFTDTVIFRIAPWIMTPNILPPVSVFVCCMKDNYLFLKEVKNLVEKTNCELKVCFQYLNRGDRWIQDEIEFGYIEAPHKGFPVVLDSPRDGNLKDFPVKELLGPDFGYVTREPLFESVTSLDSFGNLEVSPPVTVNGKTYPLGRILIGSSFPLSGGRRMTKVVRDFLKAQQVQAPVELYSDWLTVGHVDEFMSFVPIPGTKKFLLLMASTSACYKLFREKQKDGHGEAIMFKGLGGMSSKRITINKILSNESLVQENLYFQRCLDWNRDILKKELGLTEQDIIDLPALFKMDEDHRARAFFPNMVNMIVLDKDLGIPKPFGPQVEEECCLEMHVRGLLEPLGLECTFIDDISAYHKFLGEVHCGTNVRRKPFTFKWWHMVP

Columns and labels:
Experiment in all cases: MALDI-MS analysis of inhibitor-treated enzyme
Type in all cases: binding
WT-PAD4 = WT-PAD4 (Homo sapiens, UniProt Q9UM07); conditions: 1:10 enzyme:inhibitor, 1 h, WT-PAD4 3 μM
PAD4 C645A = PAD4 C645A (Homo sapiens, UniProt Q9UM07, C645A); conditions: 1:10 enzyme:inhibitor, 1 h, PAD4 C645A 5 μM
PAD2 = PAD2 (Homo sapiens, UniProt Q9Y2J8); conditions: 1:10 enzyme:inhibitor, 1 h, PAD2 3 μM

Structure (SMILES): NC1=CC(=O)c2ccc(-c3cccc(C(=O)O)n3)nc2C1=O [Compound 17]
- mass shift of WT-PAD4 (Δ Da) (WT-PAD4): 945 Da
- mass shift of PAD4 C645A (Δ Da) (PAD4 C645A): 792 Da
- mass shift of PAD2 (PAD2): 853 Da
